The target in the data set is P450 Isozyme 2C9 (Homo sapiens, UniProt P11712). The data set is described as follows: Tolbutamide hydroxylase activity in human microsome preparations. To be noted: test substance at 100 μM, human microsomes.

Sequences of proteins named here, by UniProt entry; tags and fusion partners are left off.
UniProt P11712, whole entry: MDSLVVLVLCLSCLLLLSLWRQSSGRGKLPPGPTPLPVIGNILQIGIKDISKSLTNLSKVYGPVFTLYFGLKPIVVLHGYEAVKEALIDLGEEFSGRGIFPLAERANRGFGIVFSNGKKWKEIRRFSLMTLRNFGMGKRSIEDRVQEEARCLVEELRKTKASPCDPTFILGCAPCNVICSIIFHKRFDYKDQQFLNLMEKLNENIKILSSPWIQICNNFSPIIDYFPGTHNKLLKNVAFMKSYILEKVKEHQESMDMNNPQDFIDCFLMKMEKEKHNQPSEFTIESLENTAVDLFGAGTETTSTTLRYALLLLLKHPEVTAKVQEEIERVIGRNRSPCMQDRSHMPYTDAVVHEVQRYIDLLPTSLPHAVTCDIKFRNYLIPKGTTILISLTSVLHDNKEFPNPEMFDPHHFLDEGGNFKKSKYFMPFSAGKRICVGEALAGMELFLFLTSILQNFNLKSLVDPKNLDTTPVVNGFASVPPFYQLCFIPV

With `COC(=O)[C@H](c1ccccc1)[C@H]1CCCCN1` [dtmp, d-threo-methylphenidate], the “% Inhibition of Enzyme Activity (Tolbutamide hydroxylase, 2C9)” value amounted to 25%.

For the origin of these results see US7267949B2, “Composition comprising methylphenidate and another drug” (Celltech Pharma Europe Limited, priority 1995, dated 2007).
